{
  "source": "paper PMC8284931",
  "about": "(Journal of biomolecular screening, 2012)",
  "origin": "cited, not measured here",
  "details": "amoxapine with its 8-OH metabolite included; reported, no reference given; cited from earlier work",
  "data": [
    {"smiles": "Clc1ccc2c(c1)C(N1CCNCC1)=Nc1ccccc1O2", "note": "[Amoxapine, amoxapine]", "values": [
      {"measurement": "blood concentration safely achieved", "result": "up to 1.27 μM"}
    ]}
  ]
}
